For this assay, the system named is CCl4-exposed mice. Put plainly: Carbon tetrachloride (CCl4)-induced liver fibrosis in mice. The class given is in vivo, mouse. The conditions noted are these: 5 mg/kg/day po 22 days, vs vehicle.

As for `CN(CCOc1ccc(CC2SC(=O)NC2=O)cc1)c1ccccn1` (stereo not shown) [rosiglitazone, reference compound], the “decrease of collagen levels (hepatic fibrosis)” value worked out at 54%.

(Values after patent US10052311B2, “PPAR compounds for use in the treatment of fibrotic diseases” (INVENTIVA, priority 2014, dated 2018).)
